Experiment [1] addresses T1, porcine pancreatic amylase (Sus scrofa, UniProt P00690).
T1 construct: purchased Merck
T1 sequence (P00690 16-511): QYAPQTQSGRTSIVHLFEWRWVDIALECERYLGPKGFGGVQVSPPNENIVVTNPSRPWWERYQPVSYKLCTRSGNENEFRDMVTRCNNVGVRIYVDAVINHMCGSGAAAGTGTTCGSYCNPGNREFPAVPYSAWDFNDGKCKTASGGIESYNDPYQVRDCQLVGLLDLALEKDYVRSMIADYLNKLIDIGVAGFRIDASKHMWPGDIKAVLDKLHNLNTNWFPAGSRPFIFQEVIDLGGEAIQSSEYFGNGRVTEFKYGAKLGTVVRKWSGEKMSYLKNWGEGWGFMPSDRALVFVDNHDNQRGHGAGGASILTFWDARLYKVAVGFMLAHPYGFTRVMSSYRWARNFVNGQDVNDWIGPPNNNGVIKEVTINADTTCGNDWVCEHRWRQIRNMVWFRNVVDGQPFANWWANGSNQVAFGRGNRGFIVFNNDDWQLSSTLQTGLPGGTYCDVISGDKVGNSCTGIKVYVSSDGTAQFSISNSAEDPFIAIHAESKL
As to the kind of experiment: α-Amylase inhibitory activity (starch/DNS). It is filed as biochemical.

Amino acid sequences for entries named in this document (tags omitted). A change or cut given only in a name is not applied to a line headed by its entry.
UniProt P38158: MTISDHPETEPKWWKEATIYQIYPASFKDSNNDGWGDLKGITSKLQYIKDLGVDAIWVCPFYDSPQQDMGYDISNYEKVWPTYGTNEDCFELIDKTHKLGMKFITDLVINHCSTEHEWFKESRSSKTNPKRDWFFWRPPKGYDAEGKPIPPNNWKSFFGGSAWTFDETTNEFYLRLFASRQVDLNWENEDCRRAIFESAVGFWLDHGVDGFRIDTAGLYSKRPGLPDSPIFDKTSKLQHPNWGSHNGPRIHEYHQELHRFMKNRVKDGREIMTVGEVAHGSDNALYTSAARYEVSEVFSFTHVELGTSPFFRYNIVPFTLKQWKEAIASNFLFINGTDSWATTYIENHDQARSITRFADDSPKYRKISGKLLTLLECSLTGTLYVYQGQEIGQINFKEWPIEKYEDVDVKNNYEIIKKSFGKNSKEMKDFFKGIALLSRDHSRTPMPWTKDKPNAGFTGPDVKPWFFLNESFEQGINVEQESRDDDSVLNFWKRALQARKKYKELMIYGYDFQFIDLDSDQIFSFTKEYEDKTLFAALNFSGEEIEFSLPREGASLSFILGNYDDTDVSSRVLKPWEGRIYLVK

Experiment [2] addresses T2, α-glucosidase (Saccharomyces cerevisiae, UniProt P38158).
T2 construct: purchased Merck
The experiment is described as follows: biochemical.

With `BrCCSc1nnc(COc2cccc3cccnc23)o1` [4h, 2-[(2-Bromoethyl)thio]-5-[(quinolin-8-yloxy)methyl]-1,3,4-oxadiazole], the IC50 (as a rule, the concentration at which inhibition is half-maximal) in experiment [1] is above 500 µM; in experiment [2], 46.1 µM.

For the origin of these results see PMC9414972, “α-Glucosidase and α-Amylase Inhibitory Potentials of Quinoline–1,3,4-oxadiazole Conjugates Bearing 1,2,3-Triazole with Antioxidant Activity, Kinetic Studies, and Computational Validation” (Pharmaceuticals, 2022).
